Laboratory results: the SangsterLogP compilation

SMILES | logP
COc1ccc([N+](=O)[O-])cc1 | 1.97
O=C(OCc1ccccc1)c1ccccc1 | 3.9
COc1cc(OC)nc(NC(=O)NS(=O)(=O)c2ncccc2C(=O)N(C)C)n1 | 0.64
